Data: patent publication US7632815B2, “Use of calmodulin kinase II inhibitors to treat myocardial dysfunction in structural heart disease” (Vanderbilt University, priority 2001, dated 2009)

System: CAN+ transgenic mice
Experiment: Echocardiography in calcineurin (CAN+) transgenic dilated cardiomyopathy model
Conditions: dual transgenic AC3-I+/CAN+ compared to CAN+ mice

For KKALHRQEAVDCL [AC3-I], the “left ventricular (LV) dilation” value was “reduced” and the LV fractional shortening (4-8 weeks of age) was “improved”.
